The target in the test is T1, human urate transporter 1 (hURAT1) (Homo sapiens, UniProt Q96S37).
T1 construct: expressed in transfected cells; host or cells: HEK-293T
The test can be described thus: Uptake of 14C-labeled uric acid in hURAT1 transfected cells. The format is cell-based. The conditions noted are these: 14C uric acid uptake, hURAT1-transfected HEK-293T cells, 5 min at 37° C.; read-out: IC50 (μM), inhibition of hURAT1 activity. The protocol:
The compounds were prepared into the stock solutions (5 mM) with dimethyl sulfoxide (DMSO). This experiment involved 8 concentrations in total. The final concentrations were 5000 nM, 1250 nM, 312.5 nM, 78.1 nM, 19.5 nM, 4.9 nM, 1.2 nM and 0.3 nM, respectively.
2. Preparation of buffers: chlorine-free HBSS buffer (125 mM sodium gluconate, 4.8 mM potassium gluconate, 1.3 mM calcium gluconate, 1.2 mM KH2PO4, 1.2 mM MgSO4, 5.6 mM glucose, 25 mM 4-hydroxyethylpiperazine ethanesulfonic acid (HEPES) (pH 7.4)); lysis buffer (100 mM NaOH)
3. Transfected cells stably expressing human urate transporter 1 (hURAT1) were obtained by: placing human embryonic kidney cells (HEK-293T) in a cell culture plate containing complete medium, incubating the cells for 24 h at 37° C. in 5% CO2, rinsing the cells with phosphate buffered saline (PBS) followed by trypsin digestion to prepare a suspension containing single cells; placing 8×10^6 cells a cell culture plate, adding dropwise TransIT-293 Reagent:DNA complexes (1.5 ml of Opti-MEM I Reduced-Serum Medium, 15 g of plasmid DNA, and 45 μL of TransIT-293 Reagent were mixed uniformly and then incubated at room temperature for 30 min) to different areas of the cell culture plate, gently shaking the cell culture plate to homogeneously distribute the TransIT-293 Reagent:DNA complexes, and incubating the cells for 48 h at 37° C. in 5% CO2.
4. […]

By UniProt entry, the sequences of proteins in these tests, tags left out. Where a name states a change or a piece, a line headed by the entry shows the natural chain unless it says otherwise.
UniProt Q96S37: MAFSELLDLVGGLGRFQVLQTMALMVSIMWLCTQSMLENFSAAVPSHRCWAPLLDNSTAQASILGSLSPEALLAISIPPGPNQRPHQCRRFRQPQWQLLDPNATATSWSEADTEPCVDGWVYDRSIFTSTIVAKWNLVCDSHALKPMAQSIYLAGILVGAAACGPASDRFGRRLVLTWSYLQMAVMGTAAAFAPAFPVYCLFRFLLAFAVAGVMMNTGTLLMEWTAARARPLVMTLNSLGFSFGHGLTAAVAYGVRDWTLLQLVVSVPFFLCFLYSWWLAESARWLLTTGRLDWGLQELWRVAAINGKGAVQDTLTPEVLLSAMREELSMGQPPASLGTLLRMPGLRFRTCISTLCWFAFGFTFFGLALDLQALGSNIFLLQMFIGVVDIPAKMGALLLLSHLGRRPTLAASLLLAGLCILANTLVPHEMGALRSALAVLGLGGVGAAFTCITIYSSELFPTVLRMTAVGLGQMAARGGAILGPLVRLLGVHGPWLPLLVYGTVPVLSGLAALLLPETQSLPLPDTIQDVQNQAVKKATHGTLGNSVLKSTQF

Structures are written as SMILES.

For orientation: IC50 means the concentration that inhibits the measured activity by half.

As to `O=C(O)CSc1nnc(Br)n1-c1ccc(C2CC2)c2ccccc12` [lesinurad, 2-[[5-bromo-4-(4-cyclopropyl-1-naphthyl)-4H-1,2,4-triazol-3-yl]thio] acetic acid, reference compound], the IC50 was above 5 µM.

For the origin of these results see patent US10322132B2, “Prevention or treatment of uratic or gouty diseases” (SHANTON PHARMA CO., LTD., priority 2015, dated 2019).
